In PubChem BioAssay AID952 (NMMLSC, 2007) one finds inhibition data, which are given here for 69 compounds.

Amino acid sequences for entries named in this document (tags omitted).
UniProt Q92843, whole entry: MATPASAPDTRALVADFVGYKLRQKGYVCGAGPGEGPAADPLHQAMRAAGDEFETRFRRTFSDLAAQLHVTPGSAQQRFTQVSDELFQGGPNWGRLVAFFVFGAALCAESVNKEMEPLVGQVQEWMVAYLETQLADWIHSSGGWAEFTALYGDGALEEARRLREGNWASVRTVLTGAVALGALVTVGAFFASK

Only a part is listed here, and it is no random draw. Active and inactive are the calls of the source. Rule as the data show it: active = inhibition above about 40%.

This assay concerns the target Bcl-2-like protein 2 (Homo sapiens) (UniProt Q92843). Put plainly: Bcl-W/Bim complex disruptors – biochemical, multiplexed, bead-based flow cytometry, primary screen (AID 952).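 Also: 0% = bound tracer without compound and 100% = peptide blocker; higher means less fluorescent Bim peptide bound to Bcl-W beads.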 The settings on record: Bim peptide-Bcl-W binding, at 10 µM, stronger effect = higher value.
With `CCOP(C)(=S)SCC(=O)NC(C)(CC)C(=O)O` (centres undefined), the inhibition (usually the change of the read-out against control, counted positive when it falls) was inactive: -4%.
Turning to `Cc1ccccc1NP(C)(=O)Nc1ccccc1C`, the inhibition is inactive: 0%.
To `CP(=O)(Nc1ccc2c(c1)OCCO2)Oc1ccccc1` (centres undefined) belongs inactive: -4%.
`CN(C)CCOC(=O)C(O)(c1ccccc1)C1CCCCC1` (centres undefined): the inhibition was inactive: -1%.
With `COc1ccc(NP(C)(=O)Oc2ccccc2OC)cc1` (centres undefined), the inhibition is inactive: -4%.
Regarding `COc1ccc(OP(C)(=O)Nc2cccc(Br)c2)cc1` (centres undefined), the inhibition is inactive: -4%.
On to `O=[N+]([O-])c1cc([N+](=O)[O-])c(NCC2CCS(=O)(=O)C2)c([N+](=O)[O-])c1` (centres undefined), for which the inhibition is inactive: 0%.
For `CCOC(=O)c1ccc(NP(C)(=O)Oc2ccc(F)cc2)cc1` (centres undefined) the value was inactive: -1%; for `COc1ccc(OP(C)(=O)Nc2ccc(SC(F)(F)F)cc2)cc1` (centres undefined), inactive: 0%; for `CP(=O)(Nc1ccccc1)Oc1ccc(F)cc1` (centres undefined), inactive: -2%.
On to `CCN(CC)CCCOC(=O)C(O)(c1ccccc1)C1CCCCC1` (centres undefined), for which the inhibition is inactive: -2%.
As to `CP(=O)(Nc1ccccc1F)Oc1ccccc1` (centres undefined), the inhibition was inactive: -1%.
For the compound `CC(C)c1ccc(OP(C)(=O)Nc2ccc(SC(F)(F)F)cc2)cc1` (centres undefined), the inhibition is inactive: -13%.
Consider `O=C(OCCN1CCN(CCOCc2ccccc2)CC1)C(O)(c1ccccc1)c1ccccc1`, for which the inhibition is inactive: 1%.
For `COc1ccc(OP(C)(=O)Nc2ccccn2)cc1` (centres undefined) the value was inactive: -3%; for `CN(C)CCOC(=O)C(O)(c1ccccc1)C1CCCC1` (centres undefined), inactive: 2%.
Consider `CP(=O)(Nc1ccccn1)Oc1ccccc1` (centres undefined), for which the inhibition was inactive: 0%.
To `COc1ccccc1OP(C)(=O)Nc1ccc(C)cc1C` (centres undefined) belongs inactive: 1%; to `CCc1ccc(OP(C)(=O)O)cc1`, inactive: -2%; to `O=[N+]([O-])c1cc([N+](=O)[O-])c(Nc2ccccn2)c([N+](=O)[O-])c1`, inactive: -5%.
For `Cc1c(NP(C)(=O)Oc2ccc(C(C)C)cc2)c(=O)n(-c2ccccc2)n1C` (centres undefined), the inhibition is inactive: -2%.
As to `COc1ccccc1OP(C)(=O)Nc1ccc(C)c(C)c1` (centres undefined), the inhibition was inactive: 0%.
To `COc1ccc(OP(C)(=O)Nc2ccccc2Br)cc1` (centres undefined) belongs inactive: -6%; to `Cc1cc(C)cc(OP(C)(=O)Nc2cccc(C(F)(F)F)c2)c1` (centres undefined), inactive: -2%.
For `CP(=O)(OCCOc1ccccc1)OCCOc1ccccc1` the value was inactive: -3%; for `CP(=O)(Nc1ccc(Cl)cc1Cl)Oc1ccccc1` (centres undefined), inactive: 1%; for `Cc1nc2ccc3ccccc3c2o1.O=[N+]([O-])c1cc([N+](=O)[O-])c(O)c([N+](=O)[O-])c1`, inactive: 0%.
To `CCOC(=O)c1ccc(NP(C)(=O)Oc2ccc(Cl)cc2)cc1` (centres undefined) belongs inactive: -2%; to `CP(=O)(OC12CC3CC(CC(C3)C1)C2)OC12CC3CC(CC(C3)C1)C2`, inactive: -3%; to `CP(=O)(Oc1ccccc1)N1CCOC1=O` (centres undefined), inactive: -4%.
As for `CCc1ccc(OP(C)(=O)Nc2cccnc2)cc1` (centres undefined), the inhibition is inactive: 1%.
For `CCN(CC)CC(O)COC(=O)C(O)(c1ccccc1)C1CCCCC1` (centres undefined), the inhibition is inactive: 6%.
Take `COc1ccc(OP(C)(=O)Nc2ccc(Br)cc2)cc1` (centres undefined): the inhibition was inactive: -2%.
`CN(C)C(=O)c1c([N+](=O)[O-])cc([N+](=O)[O-])cc1[N+](=O)[O-]`: the inhibition is inactive: 1%.
For `CC(C)(C)c1ccc(OP(C)(=O)O)cc1`, the inhibition was inactive: 1%.
To `COc1ccccc1OP(C)(=O)Nc1ccccc1Br` (centres undefined) belongs inactive: -1%.
Regarding `CP(=O)(Nc1ccc(Cl)cc1)Oc1ccc(F)cc1` (centres undefined), the inhibition is inactive: -3%.
Take `CP(=O)(NC(=O)Nc1ccccc1)Oc1ccccc1` (centres undefined): the inhibition was inactive: -3%.
Turning to `Cc1cc(C)cc(OP(C)(=O)Nc2ccc(SC(F)(F)F)cc2)c1` (centres undefined), the inhibition is inactive: 2%.
On to `Cc1cccc(C)c1OP(C)(=O)Nc1ccc(SC(F)(F)F)cc1` (centres undefined), for which the inhibition is inactive: 6%.
For the compound `CP(=O)(Oc1ccccc1)OC(c1ccccc1)C(F)(F)F` (centres undefined), the inhibition is inactive: 5%.
Take `CP(=O)(Nc1ccccn1)Oc1ccc(Cl)cc1` (centres undefined): the inhibition is inactive: -1%.
For the compound `CCOC(=O)c1ccc(NP(C)(=O)Oc2ccc(OC)cc2)cc1` (centres undefined), the inhibition was inactive: -5%.
Regarding `CCOP(C)(=S)SCC(=O)NC(C)C(=O)O` (centres undefined), the inhibition was inactive: 1%.
For `CP(=O)(Nc1ccccc1Br)Oc1ccccc1` (centres undefined) the value was inactive: -1%; for `COc1ccccc1OP(C)(=O)Nc1ccccc1` (centres undefined), inactive: -2%; for `CP(=S)(Nn1cnnc1)Oc1ccccc1` (centres undefined), inactive: -4%.
`O=[N+]([O-])c1ccc2c(c1)C=Nc1ccccc1O2`: the inhibition is inactive: -1%.
For `CC(C)(C)c1ccc(OP(C)(=O)Nc2ccc(SC(F)(F)F)cc2)cc1` (centres undefined), the inhibition was inactive: 0%.
Consider `Cc1cccc(C)c1OP(C)(N)=O` (centres undefined), for which the inhibition is inactive: 0%.
For `Cc1cc(C)cc(OP(C)(N)=O)c1` (centres undefined) the value was inactive: 1%; for `COc1ccccc1OP(C)(=O)Nc1cc(Cl)ccc1C` (centres undefined), inactive: -2%; for `COc1ccc(OP(C)(=O)Nc2cccc(F)c2)cc1` (centres undefined), inactive: -2%.
Take `COc1ccccc1OP(C)(=O)Nc1ccc(C)cc1` (centres undefined): the inhibition is inactive: 6%.
For the compound `Cc1ccc(NP(C)(=O)Oc2ccccc2)c(C)c1` (centres undefined), the inhibition was inactive: 1%.
`CCOC(=O)c1ccc(NP(C)(=O)Oc2ccccc2)cc1` (centres undefined): the inhibition was inactive: -3%.
On to `CCN(CC)CCCOC(=O)C(O)(c1ccccc1)c1ccccc1`, for which the inhibition is inactive: 0%.
For `CCOC(=O)c1ccc(NP(C)(=O)Oc2cc(C)cc(C)c2)cc1` (centres undefined) the value was inactive: 1%; for `Cc1cc(C)cc(OP(C)(=O)Nc2ccc(C)cc2C)c1` (centres undefined), inactive: 3%; for `Cc1ccc(C)c(NP(C)(=O)Oc2ccccc2)c1` (centres undefined), inactive: -6%.
For `CP(=O)(Nc1cccc(Br)c1)Oc1ccccc1` (centres undefined) the value was inactive: 0%; for `Cc1cc(C)cc(OP(C)(=O)Nc2ccccn2)c1` (centres undefined), inactive: 1%.
On to `CC1=NCCc2c1[nH]c1ccccc21.O=[N+]([O-])c1cc([N+](=O)[O-])c(O)c([N+](=O)[O-])c1`, for which the inhibition is inactive: 0%.
For the compound `CP(=O)(Nc1ccc(SC(F)(F)F)cc1)Oc1ccccc1` (centres undefined), the inhibition was inactive: -3%.
Take `CCCOc1ccc(NP(C)(=O)Oc2ccc(Cl)cc2)cc1` (centres undefined): the inhibition is inactive: 0%.
Regarding `COc1ccccc1OP(C)(=O)Nc1c(C)cccc1C` (centres undefined), the inhibition was inactive: 2%.
Take `CN1CCCCC1COC(=O)C1(O)c2ccccc2CCc2ccccc21` (centres undefined): the inhibition was inactive: -4%.
Consider `O=[N+]([O-])c1cc([N+](=O)[O-])c(-n2nnc3ccccc32)c([N+](=O)[O-])c1`, for which the inhibition is inactive: 0%.
For `Cc1nc2ccc3ccccc3c2s1.O=[N+]([O-])c1cc([N+](=O)[O-])c(O)c([N+](=O)[O-])c1` the value was inactive: 2%.
